Test results as given in US20020123614A1.

How the values were obtained:
iC3b coated on plastic [1] = target: iC3b coated on plastic (UniProt P01024); test: cell adhesion to immobilized iC3b; +DTT, -activation
iC3b coated on plastic [2] = target: iC3b coated on plastic (UniProt P01024); test: cell adhesion to immobilized iC3b; +DTT, +activation
iC3b coated on plastic [3] = target: iC3b coated on plastic (UniProt P01024); test: cell adhesion to immobilized iC3b; -DTT, +activation
iC3b coated on plastic [4] = target: iC3b coated on plastic (UniProt P01024); test: cell adhesion to immobilized iC3b; -DTT, -activation

Substance | percent of binding by activated wild type transfectant (iC3b coated on plastic [1]) [%] | percent of binding by activated wild type transfectant (iC3b coated on plastic [2]) [%] | percent of binding by activated wild type transfectant (iC3b coated on plastic [3]) [%] | percent of binding by activated wild type transfectant (iC3b coated on plastic [4]) [%]
Mac-1 (αMβ2) mutant Q163C/R313C (locked closed) (from UniProt P05107 23-769) (receptor) | 25 to 50 |  |  | 
Mac-1 (αMβ2) mutant F297C/A304C (from UniProt P05107 23-769) (receptor) |  |  | 25 to 50 | 
Mac-1 (αMβ2) mutant D294C/Q311C (locked open) (from UniProt P05107 23-769) (receptor) | 25 to 50 | 75 to 100 | 75 to 100 | 75 to 100

Results, then the substance that gave them:

percent of binding by activated wild type transfectant (iC3b coated on plastic [1]) [%] | percent of binding by activated wild type transfectant (iC3b coated on plastic [2]) [%] | percent of binding by activated wild type transfectant (iC3b coated on plastic [3]) [%] | percent of binding by activated wild type transfectant (iC3b coated on plastic [4]) [%] | Substance
25 to 50 | 75 to 100 | 75 to 100 | 75 to 100 | Mac-1 (αMβ2) mutant Q163C/Q309C (locked open) (from UniProt P05107 23-769) (receptor)
25 to 50 | 75 to 100 | 75 to 100 | 0 to 5 | wild-type Mac-1 (αMβ2 heterodimer) (from UniProt P05107 23-769) (receptor)
